Columns and labels:
[1] = biological target: T1, Amyloid-beta precursor protein (Homo sapiens, UniProt P05067); assay: Displacement of [125I]6-iodo-4'-dimethyaminofl avone from beta amyloid (1-40) protein aggregates
In short: (§1)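 Aβ peptide (0.5 mg/mL) aggregated 36-42 h at 37 °C with shaking in pH 7.4 buffer of 10 mM sodium phosphate, 1 mM EDTA. Aggregates incubated 3 h at room temperature in 10% ethanol with test compound (8 pM to 12.5 μM) and [125I]11 (50 μL of 0.02 nM); filtered on GF/B, γ counted. IC50 from three independent experiments; Ki by Cheng-Prusoff using Kd from Scatchard saturation.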

By UniProt entry, the sequences of proteins in these tests, tags left out.
UniProt P05067, whole entry: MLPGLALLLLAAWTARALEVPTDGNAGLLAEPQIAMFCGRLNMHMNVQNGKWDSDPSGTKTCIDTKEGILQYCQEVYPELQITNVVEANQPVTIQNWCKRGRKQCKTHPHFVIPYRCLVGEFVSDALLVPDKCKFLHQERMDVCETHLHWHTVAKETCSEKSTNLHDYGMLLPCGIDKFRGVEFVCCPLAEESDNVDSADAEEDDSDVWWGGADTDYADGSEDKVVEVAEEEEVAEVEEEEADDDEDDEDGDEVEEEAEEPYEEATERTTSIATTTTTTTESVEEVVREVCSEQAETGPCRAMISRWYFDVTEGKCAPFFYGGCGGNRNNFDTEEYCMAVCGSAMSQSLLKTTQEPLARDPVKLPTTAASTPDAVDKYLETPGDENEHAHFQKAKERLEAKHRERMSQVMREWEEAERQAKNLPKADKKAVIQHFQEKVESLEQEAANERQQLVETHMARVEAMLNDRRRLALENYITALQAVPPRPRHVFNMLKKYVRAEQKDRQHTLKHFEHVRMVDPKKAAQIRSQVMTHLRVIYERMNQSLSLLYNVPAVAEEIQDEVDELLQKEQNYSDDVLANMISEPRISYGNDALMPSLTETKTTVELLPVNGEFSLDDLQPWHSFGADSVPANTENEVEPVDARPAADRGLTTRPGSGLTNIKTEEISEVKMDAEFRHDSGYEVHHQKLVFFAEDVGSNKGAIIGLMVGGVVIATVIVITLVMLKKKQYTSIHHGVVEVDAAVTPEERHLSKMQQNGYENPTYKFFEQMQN

[2] = biological target: T1, Amyloid-beta precursor protein; assay: Displacement of [125I]6-iodo-4'-dimethyaminofl avone from beta amyloid (1-42) protein aggregates; in short: as §1

Ki [1]: > 1000 nM
Ki [2]: > 1000 nM
SMILES: Cc1ccc2c(c1)sc(-c1ccc(N(C)C)cc1)[n+]2C [THIOFLAVIN T]
